Measurements reported in article PMC12678798, “Discovery of an allosteric binding site for anthraquinones at the human P2X4 receptor” (Nature Communications, 2025).

Amino acid sequences for entries named in this document (tags omitted). A change or cut given only in a name is not applied to a line headed by its entry. Chains listed by the source or under a name are the forms on record and can include a tag or linker.
UniProt Q99571, whole entry: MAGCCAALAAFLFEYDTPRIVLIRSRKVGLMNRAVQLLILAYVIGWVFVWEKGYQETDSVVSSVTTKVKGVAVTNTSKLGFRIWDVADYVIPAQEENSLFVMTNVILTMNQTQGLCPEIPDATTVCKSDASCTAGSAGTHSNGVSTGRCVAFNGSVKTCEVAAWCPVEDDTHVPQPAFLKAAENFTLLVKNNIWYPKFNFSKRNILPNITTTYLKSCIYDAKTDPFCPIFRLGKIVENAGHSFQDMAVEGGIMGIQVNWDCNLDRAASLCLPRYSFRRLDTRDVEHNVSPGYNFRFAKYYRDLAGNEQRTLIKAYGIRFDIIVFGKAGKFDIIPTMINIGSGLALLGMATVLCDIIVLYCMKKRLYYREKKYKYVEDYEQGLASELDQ
UniProt Q99571, whole entry E307T: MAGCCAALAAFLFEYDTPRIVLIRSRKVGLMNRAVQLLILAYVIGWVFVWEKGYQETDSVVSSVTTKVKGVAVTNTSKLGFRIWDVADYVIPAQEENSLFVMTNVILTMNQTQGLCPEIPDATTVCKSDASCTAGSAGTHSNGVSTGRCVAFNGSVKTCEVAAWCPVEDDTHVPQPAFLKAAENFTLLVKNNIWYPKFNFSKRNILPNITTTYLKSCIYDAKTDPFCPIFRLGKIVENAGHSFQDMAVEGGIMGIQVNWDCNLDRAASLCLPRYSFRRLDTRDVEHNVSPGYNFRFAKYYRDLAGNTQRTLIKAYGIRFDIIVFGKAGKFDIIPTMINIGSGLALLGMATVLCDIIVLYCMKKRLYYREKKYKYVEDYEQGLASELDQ
UniProt Q99571, with tags, fused parts or gaps A304N/D302K/DEL301-301/E307T/L303I/N306T/Q308T: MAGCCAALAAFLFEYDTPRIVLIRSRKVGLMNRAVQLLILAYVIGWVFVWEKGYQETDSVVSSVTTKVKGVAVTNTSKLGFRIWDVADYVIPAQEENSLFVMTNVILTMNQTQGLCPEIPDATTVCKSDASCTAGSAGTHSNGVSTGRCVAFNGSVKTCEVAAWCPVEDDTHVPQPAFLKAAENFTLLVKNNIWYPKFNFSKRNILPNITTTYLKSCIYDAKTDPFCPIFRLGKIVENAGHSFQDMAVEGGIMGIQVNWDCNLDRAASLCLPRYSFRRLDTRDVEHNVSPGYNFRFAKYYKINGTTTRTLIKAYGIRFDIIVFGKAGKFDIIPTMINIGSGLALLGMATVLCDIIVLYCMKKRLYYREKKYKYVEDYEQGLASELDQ

Experiments:
human wt P2X4 receptor = human wt P2X4 receptor (Homo sapiens, UniProt Q99571); assay: ATP-induced calcium influx assay, human wt P2X4 receptor in 1321N1 astrocytoma cells; type: cell-based; details: read-out: IC50 ± SEM, wt P2X4, 1321N1 astrocytoma cells, inhibition vs ATP at its EC80, 30 min preincubation
[1] = molecular target: human P2X4-E307T receptor mutant (Homo sapiens, UniProt Q99571, E307T); assay: ATP-induced calcium influx assay, P2X4-E307T mutant in 1321N1 astrocytoma cells; type: cell-based
[2] = molecular target: chimeric P2X4(P2X2) receptor c10^R301-Q308 (Homo sapiens, UniProt Q99571, A304N/D302K/DEL301-301/E307T/L303I/N306T/Q308T); assay: ATP-induced calcium influx assay, chimeric receptor c10 in 1321N1 astrocytoma cells; type: cell-based; details: read-out: IC50 ± SEM, P2X4(P2X2) c10^R301-Q308, 1321N1 astrocytoma cells, vs ATP at its EC80
[3] = Physicochemical properties (water solubility, lipophilicity); details: as stated in words; tested form: Na salt
[4] = read-out: IC50 ± SEM, vs ATP at its EC80, tested form: Na salt

Structure (SMILES) | IC50 (human wt P2X4 receptor) | IC50 ([1]; read-out: IC50 ± SEM, vs ATP at its EC80) | IC50 [2] | IC50 (human wt P2X4 receptor; tested form: Na salt) | IC50 [1, 4] | IC50 ([2]; tested form: Na salt) | Water solubility [3]
Cc1cc(Nc2ccc(Nc3ccccc3)cc2)c2c(c1N)C(=O)c1ccccc1C2=O | > 10000 nM | > 10000 nM | > 10000 nM |  |  |  | 
Cc1cc(C)cc(Nc2cc(S(=O)(=O)O)c(N)c3c2C(=O)c2ccccc2C3=O)c1 |  |  |  | 20000 nM | 195 nM | 266 nM | 
Nc1c(S(=O)(=O)O)cc(Nc2ccc(Nc3ccccc3)cc2)c2c1C(=O)c1ccccc1C2=O |  |  |  | 1350 nM | 164 nM | 92.2 nM | Water-soluble
Nc1c(S(=O)(=O)O)cc(Nc2ccc(O)cc2)c2c1C(=O)c1ccccc1C2=O |  |  |  | 4330 nM | 289 nM | 61.9 nM | 
Cc1cc(Nc2ccc(Nc3ccccc3)c(S(=O)(=O)O)c2)c2c(c1N)C(=O)c1ccccc1C2=O |  |  |  | 25300 nM | 180 nM | 42.9 nM | 
O=C1c2ccccc2C(=O)c2c(Nc3ccc(Nc4ccccc4)c(S(=O)(=O)O)c3)cc(S(=O)(=O)O)cc21 |  |  |  | 11400 nM | 40.4 nM |  | 
COc1cccc(Nc2cc(S(=O)(=O)O)c(N)c3c2C(=O)c2ccccc2C3=O)c1 |  |  |  | 3280 nM | 204 nM | 44.8 nM | 

Like-named read-outs stand apart in the source and are kept apart here.
